Laboratory results as given in US20010049374A1 (priority 1997, published 2001).

What follows are molecules tested against T1, urokinase enzyme Abbokinase (Homo sapiens, UniProt P00749) (assay: Determination of urokinase inhibition (Abbokinase, chromogenic substrate S-2444)).
T1 construct: purchased Abbott Laboratories, Abbott Park, Ill
Assay type: biochemical
`COc1ccc2ccc(C(=N)N)cc2c1-c1ccco1` [Example 25, 7-Methoxy-8-(2-furanyl)-2-naphthalenecarboximidamide] was tested, and the IC50 was 2100 nM. In the case of `N=C(N)c1ccc2cc(C#Cc3ccc(CCN)cc3)ccc2c1` [Example 63, 6-[[4-(2-Aminoethyl)phenyl]ethynyl]-2-naphthalenecarboximidamide], the IC50 is reported as 370 nM. `N=C(N)c1ccc2cc(-c3ccc(N)cc3)ccc2c1` [Example 93, 6-(4-aminophenyl)-2-naphthalenecarboximidamide] showed an IC50 of 2360 nM. Work on `COc1ccc2ccc(C(=N)N)cc2c1Nc1ccccc1` [Example 102, 7-methoxy-8-(phenylamino)-2-naphthalenecarboximidamide] yielded an IC50 of 340 nM. With `[H]/N=C(/N)c1ccc2cc(C=Cc3ccc(C(O)CO)cc3)ccc2c1` (centres unmarked) [Example 104, (E)-6-[2-[4-(1,2-dihydroxyethyl)phenyl]ethenyl]-2-naphthalenecarboximidamide] the IC50 was 1200 nM.
